{"source": "PubChem BioAssay AID623870", "about": "(Broad Institute, 2012)", "note": "Only a part is listed here, and it is no random draw. Activity calls are given as the source filed them.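 How the source made its calls: active means mean inhibition of replicates at least 50% and at least half of replicates each reaching 50%; inconclusive means half or more replicates reach 50% but mean below 50%; inactive means the rest.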"}
{"molecular_target": "Transforming acidic coiled-coil-containing protein 3 (Homo sapiens) (UniProt Q9Y6A5)", "test": "inhibitors of ARNT PAS-B binding to TACC3 – biochemical, AlphaScreen, single concentration, primary screen (AID 623870);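 further: 0% = complete ARNT plus TACC3 wells and 100% = ARNT alone without TACC3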", "settings": "AlphaScreen His-ARNT PAS-B/GST-TACC3 binding, luminescence; at 9.99 µM; active compounds read high; TACC3 fragment carries E629A point mutation"}
{"smiles": "CCC(=O)N(c1ccccc1)C1(COC)CCN(CCn2nnn(CC)c2=O)CC1", "inhibition": "inactive: 0.777%"}
{"smiles": "CCC(=O)N(c1ccccc1)C1(COC)CCN(CCc2cccs2)CC1", "inhibition": "inactive: 1.25%"}
